One experiment has as its target human CB1R (Homo sapiens, UniProt P21554). As to the kind of experiment: CB1R mediated modulation of cAMP synthesis. The format is cell-based. The following applies: read-out: CB1 EC50; CHO cells expressing human CB1R; inhibition of forskolin-stimulated cAMP synthesis. Here is the method:
C. CB1R Mediated Modulation of cAMP Synthesis:
Compounds of the invention are evaluated for their CB1 agonist or inverse agonistic activity in accordance with the following experimental method.
(§1) CHO cells expressing human CB1R (Euroscreen) are plated at a density of 5000 cells per well in 384 well plates and incubated overnight at 37° C. After removing the media, the cells are treated with test compounds diluted in stimulation buffer containing 1 mM IBMX, 0.25% BSA and 10 uM Forskolin. The assay is incubated for 30 minutes at 37° C. Cells are lysed and the cAMP concentration is measured using DiscoverX-XS cAMP kit, following the manufacturer's protocol. In this setting, agonists will decrease forskolin induced production of cAMP while inverse agonists will further increase forskolin induced production of cAMP. EC50 of agonists are calculated as follows. The maximal amount of cAMP produced by forskolin compared to the level of cAMP inhibited by 1 uM CP55940 is defined as 100%. The EC50 value of each test compound is determined as the concentration at which 50% of the forskolin-stimulated cAMP synthesis is inhibited. Data is analyzed using a four-parameter logistic model. (Model 205 of XLfit 4.0).

Chains of the proteins cited; added tags and fusions are not shown.
UniProt P21554, whole entry: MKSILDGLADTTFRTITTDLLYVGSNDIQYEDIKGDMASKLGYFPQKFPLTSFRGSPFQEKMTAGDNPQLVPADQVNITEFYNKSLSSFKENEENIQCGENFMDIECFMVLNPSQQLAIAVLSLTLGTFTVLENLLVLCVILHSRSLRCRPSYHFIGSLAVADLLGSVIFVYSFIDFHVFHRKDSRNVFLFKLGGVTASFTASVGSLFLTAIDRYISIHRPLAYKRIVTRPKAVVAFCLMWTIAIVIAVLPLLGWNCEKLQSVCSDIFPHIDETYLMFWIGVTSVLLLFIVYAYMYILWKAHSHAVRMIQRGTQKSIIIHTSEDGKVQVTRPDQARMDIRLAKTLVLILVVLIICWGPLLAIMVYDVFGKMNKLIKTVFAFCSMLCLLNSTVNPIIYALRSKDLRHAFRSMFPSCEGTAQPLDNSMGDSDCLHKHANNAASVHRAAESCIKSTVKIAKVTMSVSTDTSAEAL
UniProt P34972, whole entry: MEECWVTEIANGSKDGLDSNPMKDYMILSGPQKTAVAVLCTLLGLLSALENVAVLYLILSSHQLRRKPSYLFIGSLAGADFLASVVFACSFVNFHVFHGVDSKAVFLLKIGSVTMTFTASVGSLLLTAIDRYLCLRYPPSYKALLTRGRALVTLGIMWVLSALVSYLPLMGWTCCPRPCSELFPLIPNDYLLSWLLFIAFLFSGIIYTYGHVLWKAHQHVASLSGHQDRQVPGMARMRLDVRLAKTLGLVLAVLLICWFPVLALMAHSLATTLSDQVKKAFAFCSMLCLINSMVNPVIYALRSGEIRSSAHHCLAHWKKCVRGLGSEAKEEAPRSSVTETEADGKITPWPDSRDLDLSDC

The target of a further experiment is human CB2R (Homo sapiens, UniProt P34972). The experiment is described as follows: CB2R mediated modulation of cAMP synthesis. The format is cell-based. The following applies: read-out: CB2 EC50; CHO cells expressing human CB2R; inhibition of forskolin-stimulated cAMP synthesis. As to the method: B. CB2R Mediated Modulation of cAMP Synthesis:
Compounds of the invention are evaluated for their CB2 agonist or inverse agonistic activity in accordance with the following experimental method.
as §1, with “CB2R” for “CB1R”

On to `CC(C)(CO)c1nnc(NC(=O)C(C)(C)S(=O)(=O)CCCC(F)(F)F)s1`, for which the EC50 was over 50000 nM at human CB1R and 93 nM at human CB2R.

(Values after patent US8048899B2, “Compounds which selectively modulate the CB2 receptor” (Boehringer Ingelheim International GmbH, priority 2008, dated 2011).)
